One data set deals with μ receptor (Mus musculus, UniProt P42866). Kind of data set: Mouse abdominal stretch assay with μ antagonist β-funaltrexamine (β-FNA). Particulars: for ED50 ratio, β-FNA (μ): agonist sc, β-FNA 44.44 μmol/kg sc, 30 min peak time, ED50 in antagonist-treated / control ED50, 95% confidence levels; for effect of β-FNA on ED50, in words: μ antagonist.
Another data set deals with κ receptor (Mus musculus, UniProt P33534). Kind of data set: Mouse abdominal stretch assay with κ antagonist norBNI. Particulars: for receptor selectivity of antinociceptive effect, in words: mouse abdominal stretch assay; for effect of nor-BNI on ED50, in words: κ-selective antagonist.
In a further data set the target is δ receptor (Mus musculus, UniProt P32300). The experiment in a line: Mouse abdominal stretch assay with δ antagonist naltrindole (NTI). To be noted: for ED50 ratio, NTI (δ): agonist sc, NTI 20.37 μmol/kg sc, 24 h peak time, ED50 in antagonist-treated / control ED50, 95% confidence levels; for effect of NTI on ED50, in words: δ antagonist.
The test system of data set [1] is guinea pig longitudinal ileal muscle (GPI) preparations. Kind of data set: Agonist potency in electrically stimulated guinea pig ileal longitudinal muscle (GPI). To be noted: for IC50: GPI, arithmetic means of at least three experiments.
The target in a further data set is κ opioid receptor (Cavia porcellus, UniProt P41144). Kind of data set: Competition binding to κ receptors, [3H]U69,593, guinea pig brain membranes. To be noted: for selectivity δ2/κ: Ki ratio δ2/κ; for selectivity μ/κ: Ki ratio μ/κ; for binding to the κ opioid receptor, in words / Ki: guinea-pig brain; for Ki: read-out: Ki (nM) κ, 1 nM [3H]U69,593, geometric means of three experiments.

Data set [2] is described as follows: Mouse abdominal stretch (writhing) antinociception assay, icv and iv. Particulars: for icv - ED50 / iv - ED50: writhing, mice, converted from nmol/mouse with 25 g/mouse. In general terms: In writhing tests, fewer writhes than in controls are read as antinociception.
Data set [3] concerns mouse vas deferens (MVD) preparations. Kind of data set: Agonist potency in mouse vas deferens (MVD).
The conditions of data set [4]: cited from earlier work.
[5] abbreviates: read-out: GPI - IC50 (nM) (Amino-Acid Conjugates).
Where [6] appears, read: read-out: IC50 (nM) ± SEM, MVD (Agonist Potencies of Parent Compounds), arithmetic means of at least three experiments.
The mark [7] stands for this setting: read-out: IC50 (nM) ± SEM, GPI (Agonist Potencies of Parent Compounds).

Each structure is given as a SMILES string. Where two headings read alike, the source gives them in different places.

With `CN(C(=O)Cc1ccc(Cl)c(Cl)c1)[C@H](CN1CCCC1)c1cccc(NC(=O)C[C@H](N)C(=O)O)c1`, on μ receptor, the ED50 ratio, β-FNA (μ) was 2.56 and the “effect of β-FNA on ED50, in words” value is “ineffective”. Also, on κ receptor, the “receptor selectivity of antinociceptive effect, in words” value is “κ-selective” and the “effect of nor-BNI on ED50, in words” value was “significantly increased the ED50 values”. Also, on δ receptor, the ED50 ratio, NTI (δ) was determined as 1.01 and the “effect of NTI on ED50, in words” value is on record as “ineffective”. Further, in data set [1] (setting [5]), the half-maximal inhibitory concentration (IC50) is 0.55 nM.
In the case of `CN(C(=O)Cc1ccc(Cl)c(Cl)c1)[C@H](CN1CCCC1)c1cccc(NC(=O)CC[C@@H](N)C(=O)O)c1`, the IC50 in data set [1] (setting [5]) is 0.39 nM.
Turning to `CN(C(=O)Cc1ccc(Cl)c(Cl)c1)[C@H](CN1CCCC1)c1cccc(NC(=O)[C@@H](N)CC(=O)O)c1`, on μ receptor, the ED50 ratio, β-FNA (μ) was found to be 2.86 and the “effect of β-FNA on ED50, in words” value was “ineffective”. For the same molecule, at κ receptor, the “receptor selectivity of antinociceptive effect, in words” value is recorded as “κ-selective” and the “effect of nor-BNI on ED50, in words” value is reported as “significantly increased the ED50 values”. For the same molecule, at δ receptor, the ED50 ratio, NTI (δ) came to 0.92 and the “effect of NTI on ED50, in words” value is “ineffective”. For the same molecule, in data set [1] (setting [5]), the IC50 was 0.84 nM. For the same molecule, at κ opioid receptor, the selectivity δ2/κ turned out to be 5290; the selectivity μ/κ came out at 2270; the “binding to the κ opioid receptor, in words” value is “retained high affinity and selectivity binding to the κ opioid receptor”; the Ki amounted to 0.2 nM. In data set [2], the selectivity (iv/icv) came to 15.7, the “icv - ED50” value amounted to 6.8 nmol/kg and the “iv - ED50” value amounted to 105 nmol/kg.
For the molecule `CN(C(=O)Cc1ccc(Cl)c(Cl)c1)[C@@H](CN1CCCC1)c1ccccc1`, the IC50 in data set [3] (setting [6]) was 87 nM.
With `CN(C(=O)Cc1ccc(Cl)c(Cl)c1)[C@H](CN1CCCC1)c1cccc(NC(=O)[C@H](N)CC(=O)O)c1` [listing 1 of 2 here], the inhibitory constant (Ki) on κ opioid receptor came to 0.97 nM.
Regarding `CN(C(=O)Cc1ccc(Cl)c(Cl)c1)[C@H](CN1CCCC1)c1cccc(NC(=O)[C@H](N)CC(=O)O)c1` [listing 2 of 2 here], the IC50 in data set [3] (read-out: MVD - IC50 (nM) (Amino-Acid Conjugates), arithmetic means of at least three experiments) stood at 4.06 nM. On μ receptor, the ED50 ratio, β-FNA (μ) is 1.75 and the “effect of β-FNA on ED50, in words” value was “not affected significantly”. Also, on κ receptor, the “effect of nor-BNI on ED50, in words” value is reported as “not affected significantly”. Further, on δ receptor, the ED50 ratio, NTI (δ) was found to be 0.55 and the “effect of NTI on ED50, in words” value was “not affected significantly”. Also, on κ opioid receptor, the selectivity δ2/κ is 590; the selectivity μ/κ turned out to be 266; the “binding to the κ opioid receptor, in words” value is “retained high affinity and selectivity binding to the κ opioid receptor”. In data set [2], the selectivity (iv/icv) was 43.6, the “icv - ED50” value stood at 46 nmol/kg and the “iv - ED50” value worked out at 2015 nmol/kg.
Consider `CN(C(=O)Cc1ccc(Cl)c(Cl)c1)[C@H](CN1CCCC1)c1cccc([N+](=O)[O-])c1`, for which the half-inhibitory concentration (IC50) amounted to 2.49 nM in data set [3] (setting [6]) and 16.2 nM in data set [1] (setting [7]).
With `C=CC[N+]1(C)CC[C@]23c4c5ccc(O)c4O[C@H]2C(=O)CC[C@@]3(O)[C@H]1C5` (some centres unmarked), the “toxic effects at high dosages” value in data set [4] is “produces tumors and convulsions”.
As to `CN(C(=O)Cc1ccc(Cl)c(Cl)c1)C(CN1CCCC1)c1ccc([N+](=O)[O-])cc1` (racemic), the 50% inhibitory concentration (IC50) in data set [1] (setting [7]) was found to be 100 nM.
For `CN(C(=O)Cc1ccc(Cl)c(Cl)c1)[C@H](CN1CCCC1)c1cccc(N)c1`, the half-maximal inhibitory concentration (IC50) was 0.12 nM in data set [3] (setting [6]) and 0.17 nM in data set [1] (setting [7]).
With `CN(C(=O)Cc1ccc(Cl)c(Cl)c1)[C@H](CN1CCCC1)c1ccccc1`, the IC50 in data set [3] (setting [6]) was determined as 2.5 nM. For the same molecule, the IC50 in data set [1] (setting [7]) is 0.27 nM. Also, in data set [2], the selectivity (iv/icv) was determined as 1.4, the “icv - ED50” value turned out to be 12 nmol/kg and the “iv - ED50” value amounted to 17 nmol/kg.
For the molecule `CN(C(=O)Cc1ccc(Cl)c(Cl)c1)C(CN1CCCC1)c1ccc(N)cc1` (racemic), the concentration for half-maximal inhibition (IC50) in data set [3] (setting [6]) came out at 4.45 nM; in data set [1] (setting [7]) it was 0.65 nM. Further, in data set [1] (compared with 15 in the GPI), the “potency in GPI, in words” value is “retained potencies comparable to the more potent enantiomer 15”.

The term IC50 denotes the concentration at which inhibition is half-maximal. In general, Ki refers to a dissociation constant, usually derived from enzyme kinetics or from competition with a known ligand.
